Among the data in US7030242B2, “Selective inhibition of aggrecanase in osteoarthritis treatment” (Pfizer Inc, priority 1999, dated 2006) are IC50 values, retold here.

For the experiment, the target named is T1, Human recombinant collagenase-1 (Homo sapiens, UniProt P03956).
T1 sequence (P03956 100-469): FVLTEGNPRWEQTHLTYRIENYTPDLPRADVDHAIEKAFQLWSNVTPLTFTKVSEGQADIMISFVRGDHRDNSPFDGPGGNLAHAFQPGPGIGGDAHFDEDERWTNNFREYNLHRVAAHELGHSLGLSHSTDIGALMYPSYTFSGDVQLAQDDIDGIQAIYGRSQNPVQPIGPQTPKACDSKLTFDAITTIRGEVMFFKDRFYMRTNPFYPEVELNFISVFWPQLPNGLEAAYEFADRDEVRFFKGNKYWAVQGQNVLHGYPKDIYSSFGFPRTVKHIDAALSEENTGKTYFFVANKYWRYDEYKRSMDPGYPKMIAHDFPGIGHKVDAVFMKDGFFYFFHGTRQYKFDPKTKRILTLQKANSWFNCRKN
As to the kind of experiment: Inhibition of human collagenase-1 (recombinant collagenase-1 assay). The format is biochemical. The settings on record: human recombinant enzyme, fluorogenic peptide substrate.

With `CNC(=O)[C@H](Cc1ccc(OC)cc1)NC(=O)[C@@H](CC(=O)NO)CC(C)C` [drawing 51, reference compound], the IC50 (commonly the midpoint of a concentration-inhibition curve) came to 3 nM.
